# From patent US20260345802A1, “ANTIBODY-DRUG CONJUGATES AND LINKERS AND METHODS OF USE THEREOF” (priority 2023, published 2026)
# Tested on: TNBC cells
# Experiment: In vitro anti-TNBC cytotoxicity (MDA-MB-231, MDA-MB-468 and 4T1)
# Settings: compared to free drugs and single-payload ADCs / other tested TLR7/8 agonists
compound,measurement,value
CCCCc1nc2c(N)nc3ccccc3c2n1Cc1ccc(CN)cc1,cytotoxicity or potency to TNBC cells,high TNBC cytotoxicity
